Literature values as cited in patent publication US20040241244A1, “Neuronal growth enhancement by prostaglandin compositions and methods” (NexMed (Holdings) Inc., priority 2003, published 2004).

The chains behind the UniProt entries cited, without tags or fusion partners. Where a name states a change or a piece, a line headed by the entry shows the natural chain unless it says otherwise.
UniProt P32240: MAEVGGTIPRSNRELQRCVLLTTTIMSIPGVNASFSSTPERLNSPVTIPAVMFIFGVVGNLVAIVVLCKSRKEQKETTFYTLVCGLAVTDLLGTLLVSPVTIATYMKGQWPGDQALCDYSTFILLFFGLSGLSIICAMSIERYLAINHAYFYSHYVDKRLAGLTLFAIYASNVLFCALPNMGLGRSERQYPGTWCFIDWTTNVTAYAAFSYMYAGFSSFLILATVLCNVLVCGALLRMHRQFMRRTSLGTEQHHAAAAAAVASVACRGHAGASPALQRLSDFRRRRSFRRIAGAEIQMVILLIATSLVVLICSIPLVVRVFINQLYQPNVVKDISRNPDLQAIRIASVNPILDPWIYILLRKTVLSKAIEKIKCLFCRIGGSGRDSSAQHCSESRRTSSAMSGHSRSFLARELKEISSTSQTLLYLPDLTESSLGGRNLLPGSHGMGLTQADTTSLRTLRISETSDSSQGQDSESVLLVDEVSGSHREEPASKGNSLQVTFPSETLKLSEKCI
UniProt Q62053: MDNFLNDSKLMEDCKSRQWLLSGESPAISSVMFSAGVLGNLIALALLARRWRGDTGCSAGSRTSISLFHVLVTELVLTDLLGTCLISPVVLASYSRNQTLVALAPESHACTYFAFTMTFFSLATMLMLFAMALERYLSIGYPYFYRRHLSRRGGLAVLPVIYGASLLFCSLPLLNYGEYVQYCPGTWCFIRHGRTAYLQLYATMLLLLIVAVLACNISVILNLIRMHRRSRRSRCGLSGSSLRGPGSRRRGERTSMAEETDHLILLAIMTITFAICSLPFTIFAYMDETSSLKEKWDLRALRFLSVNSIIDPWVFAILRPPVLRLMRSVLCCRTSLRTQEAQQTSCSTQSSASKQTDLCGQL

Columns and labels:
EP4 receptor = EP4 receptor (Mus musculus, UniProt P32240); conditions: read-out: affinity for the EP4 receptor; cited from earlier work
EP2 receptor = EP2 receptor (Mus musculus, UniProt Q62053); conditions: read-out: affinity for the EP2 receptor; cited from earlier work

For Prostaglandin E1 [PGE1], the Kd (EP4 receptor) is given as about 2 nM and the Kd (EP2 receptor) is given as about 10 nM.
